In paper PMC6433232 (2019):

Test system: primary acute myeloid leukemia (AML) cells obtained from patients
Assay: Kinase inhibitor library screening with and without NSC130362, primary AML cells
Format: cell-based, Human

## CNC(=O)c1cc(Oc2ccc(NC(=O)Nc3ccc(Cl)c(C(F)(F)F)c3)cc2)ccn1 [Sorafenib]
  EC50 decrease, fold (Screen N 3): 2.0 fold
